The values below are quoted from earlier work in patent US20230382900A1, “INHIBITORS OF BTK” (Newave Pharmaceutical Inc., priority 2020, published 2023).

By UniProt entry, the sequences of proteins in these tests, tags left out.
UniProt Q06187, whole entry, species assumed: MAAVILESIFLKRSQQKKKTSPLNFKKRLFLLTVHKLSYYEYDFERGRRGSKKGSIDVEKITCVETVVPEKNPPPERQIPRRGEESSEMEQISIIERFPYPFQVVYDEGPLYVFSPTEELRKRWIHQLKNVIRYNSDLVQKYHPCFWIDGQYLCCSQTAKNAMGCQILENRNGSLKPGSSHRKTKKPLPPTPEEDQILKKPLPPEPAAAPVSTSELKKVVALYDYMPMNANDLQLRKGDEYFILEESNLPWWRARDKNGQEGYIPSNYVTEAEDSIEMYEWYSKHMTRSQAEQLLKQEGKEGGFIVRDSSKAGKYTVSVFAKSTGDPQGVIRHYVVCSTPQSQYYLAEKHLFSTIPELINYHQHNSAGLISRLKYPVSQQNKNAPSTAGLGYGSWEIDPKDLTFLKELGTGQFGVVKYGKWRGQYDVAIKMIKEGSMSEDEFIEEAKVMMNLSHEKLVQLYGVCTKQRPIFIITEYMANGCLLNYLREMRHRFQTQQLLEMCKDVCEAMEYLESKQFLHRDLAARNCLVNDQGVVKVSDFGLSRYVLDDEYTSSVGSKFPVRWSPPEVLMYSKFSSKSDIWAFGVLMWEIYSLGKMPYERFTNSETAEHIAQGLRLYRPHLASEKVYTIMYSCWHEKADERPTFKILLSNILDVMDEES

This series deals with Bruton's tyrosine kinase (BTK) (Homo sapiens, UniProt Q06187). To be noted: read-out: IC50s for basophil activation, B cell receptor activation, and constitutive p-BTK activity in whole blood lysates; cited from earlier work.

As to `C[C@H]1CN(C2COC2)CCN1c1ccc(Nc2cc(-c3ccnc(N4CCn5c(cc6c5CC(C)(C)C6)C4=O)c3CO)cn(C)c2=O)nc1` [GDC-0853], the IC50 was 2 to 9 nM.
